Sequences of proteins named here, by UniProt entry; tags and fusion partners are left off.
UniProt P50750, whole entry: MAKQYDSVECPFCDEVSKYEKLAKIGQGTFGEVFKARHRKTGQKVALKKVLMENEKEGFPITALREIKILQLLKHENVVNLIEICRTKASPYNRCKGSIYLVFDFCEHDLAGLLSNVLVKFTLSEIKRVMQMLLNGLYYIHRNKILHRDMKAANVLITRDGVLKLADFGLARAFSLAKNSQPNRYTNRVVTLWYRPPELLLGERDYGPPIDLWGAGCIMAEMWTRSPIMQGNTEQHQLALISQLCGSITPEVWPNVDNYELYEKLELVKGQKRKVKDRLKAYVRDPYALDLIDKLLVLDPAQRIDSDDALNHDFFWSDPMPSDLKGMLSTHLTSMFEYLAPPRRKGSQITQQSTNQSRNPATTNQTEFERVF

According to patent publication US20260159520A1, “HETEROBIFUNCTIONAL COMPOUNDS AND METHODS OF TREATING DISEASE” (Halda Therapeutics OpCo, Inc., priority 2022, published 2026):

What was measured:
VCaP cells = assay: Cellular growth inhibition assay for VCaP cells; details: 72 hours, CellTiter-Glo 2.0
Experimental: VCaP cells were purchased from American Type Cell Culture (ATCC Cat #CRL2876) and then seeded on poly-D-lysine coated, black clear-bottom 384-well plates at 5000/well in 25 μL Dulbecco's Modified Eagle Medium (DMEM) supplemented with 10% w/w Fetal bovine serum (FBS) and 1% w/w Pen-Strep. Pen-Strep is a commercially available mixture of penicillin G and streptomycin, which is used in mammalian cell culture media to prevent bacterial contamination. Dulbecco's Modified Eagle Medium (DMEM) supplemented with 10% w/w fetal bovine serum (FBS) and 1% w/w Pen-Strep is herein referred to as Treatment Medium. Following seeding of cells in the plates, the plates were spun at 300×g for 30 seconds, then equilibrated to room temperature for 30 minutes, and then deposited in a humidified tissue culture incubator maintained at 37° C. with 5% CO2. […]
At the end of the treatment duration, cell viability was quantified with CellTiter-Glo 2.0 reagent (Promega Cat #G9243). […] Following incubation, the plates were spun at 3000×g for 30 seconds, then sealed with an optical adhesive cover, and luminescence readings were measured with an EnVision Plate Reader. Data was normalized using zero luminescence for baseline. […]

T47D cells = assay: Cellular growth inhibition assay for T47D cells; details: 72 hours, CellTiter-Glo 2.0
Experimental: T47D cells were purchased from American Type Cell Culture (ATCC Cat #HTB-133) and then seeded on poly-D-lysine coated, black clear-bottom 384-well plates at 3000/well in 25 μL Dulbecco's Modified Eagle Medium (DMEM) supplemented with 10% w/w Fetal bovine serum (FBS), 0.2 units/mL recombinant human insulin (Gibco Cat #12585014), and 1% w/w Pen-Strep. Pen-Strep is a commercially available mixture of penicillin G and streptomycin, which is used in mammalian cell culture media to prevent bacterial contamination. Dulbecco's Modified Eagle Medium (DMEM) supplemented with 10% w/w fetal bovine serum (FBS), 0.2 units/mL recombinant human insulin, and 1% w/w Pen-Strep is herein referred to as Treatment Medium. Following seeding of cells in the plates, the plates were spun at 300×g for 30 seconds, then equilibrated to room temperature for 30 minutes, and then deposited in a humidified tissue culture incubator maintained at 37° C. with 5% CO2. […]
(§1) At the end of the treatment duration, cell viability was quantified with CellTiter-Glo 2.0 reagent (Promega Cat #G9243). […] Following incubation, the plates were spun at 3000×g for 30 seconds, then sealed with an optical adhesive cover, and luminescence readings were measured with an EnVision Plate Reader (Perkin Elmer).
(§2) Data was normalized using zero luminescence for baseline. […]

[1] = system: T-Rex 293 cell line SC3 cells having increased expression of androgen receptor protein; assay: Cellular growth inhibition, T-Rex 293 SC3 cells with doxycycline (increased androgen receptor expression); details: with 10 ng/mL doxycycline (increased androgen receptor), 72 hours, CellTiter-Glo 2.0
Experimental: (§3) The following types of cells were prepared for this experiment: (i) a T-Rex 293 cell line having increased expression of androgen receptor protein due to exposure to doxycycline and (ii) a T-Rex 293 cell line lacking increased expression of androgen receptor protein. Ability of the test compounds to inhibit proliferation of the foregoing cell types was evaluated according to the procedures set forth below.
(§4) The doxycycline-inducible androgen receptor protein expressing cell line was established using the following protocol: T-Rex 293 cells were purchased from Invitrogen (Cat #R71007) and transfected using Lipofectamine 2000 with the wild-type androgen receptor protein sequence cloned into the pcDNA4/TO vector. Transfected cells were selected using 400 μg/mL Zeocin (Invitrogen Cat #R25001). […] Clones were analyzed for expression of androgen receptor protein in the presence and absence of 10 ng/mL doxycycline (Sigma Cat #D9891), and a single doxycycline-inducible clone (hereinafter “SC3”) was selected for use in downstream assays. […]
as §1, with “Reader.” for “Reader (Perkin Elmer).”
as §2

[2] = system: T-Rex 293 cell line SC3 cells lacking increased expression of androgen receptor protein; assay: Cellular growth inhibition, T-Rex 293 SC3 cells without doxycycline; details: not exposed to doxycycline, 72 hours, CellTiter-Glo 2.0
Experimental: as §3, §4
as §1, with “Reader.” for “Reader (Perkin Elmer).”
as §2

[3] = system: T-Rex 293 cell line SC cells lacking increased expression of progesterone receptor isoform B protein; assay: Cellular growth inhibition, T-Rex 293 SC cells without doxycycline; details: not exposed to doxycycline, 72 hours, CellTiter-Glo 2.0
Experimental: as §3, with “progesterone” for “androgen”, “receptor isoform B” for “receptor”
(§5) The doxycycline-inducible progesterone receptor isoform B protein expressing cell line was established using the following protocol: T-Rex 293 cells were purchased from Invitrogen (Cat #R71007) and transfected using Lipofectamine 2000 with the wild-type progesterone receptor B protein sequence cloned into the pcDNA4/TO vector. […] Clones were analyzed for expression of progesterone receptor isoform B protein in the presence and absence of 10 ng/mL doxycycline (Sigma Cat #D9891), and a single doxycycline-inducible clone (hereinafter “SC”) was selected for use in downstream assays. […]
as §1, §2

CDK9 = CDK9 (Homo sapiens, UniProt P50750); assay: KdELECT binding assay, CDK9; details: CDK9, Table 7
Experimental: Compounds were tested using a KdELECT. Kinase-tagged T7 phage strains were prepared in an E. coli host derived from the BL21 strain. E. coli were grown to log-phase and infected with T7 phage and incubated with shaking at 32° C. until lysis. The lysates were centrifuged and filtered to remove cell debris. The remaining kinases were produced in BEK-293 cells and subsequently tagged with DNA for qPCR detection. Streptavidin-coated magnetic beads were treated with biotinylated small molecule ligands for 30 minutes at room temperature to generate affinity resins for kinase assays. The liganded beads were blocked with excess biotin and washed with blocking buffer (SeaBlock (Pierce), 1% BSA, 0.05% Tween 20, 1 mM DTT) to remove unbound ligand and to reduce non-specific binding. Binding reactions were assembled by combining kinases, liganded affinity beads, and test compounds in 1× binding buffer (20% SeaBlock, 0.17×PBS, 0.05% Tween 20, 6 mM DTT). Test compounds were prepared as 111× stocks in 100% DMSO. Kd values were determined using an 11-point 3-fold compound dilution series with three DMSO control points. All compounds for Kd measurements are distributed by acoustic transfer (non-contact dispensing) in 100% DMSO. The compounds were then diluted directly into the assays such that the final concentration of DMSO was 0.9%. […] The kinase concentration in the eluates was measured by qPCR.

[4] = system: T-Rex 293 cell line SC cells having increased expression of progesterone receptor isoform B protein; assay: Cellular growth inhibition, T-Rex 293 SC cells with doxycycline (increased progesterone receptor isoform B expression); details: with 10 ng/mL doxycycline (increased progesterone receptor isoform B), 72 hours, CellTiter-Glo 2.0
Experimental: as §3, with “progesterone” for “androgen”, “receptor isoform B” for “receptor”
as §5, §1, §2

COc1cc(F)ccc1-c1ccnc2[nH]c(C3CCN(CCOC4CCN(c5ncc(C(=O)N[C@H]6C(C)(C)[C@H](Oc7ccc(C#N)c(Cl)c7)C6(C)C)cn5)CC4)CC3)cc12
GI50 (VCaP cells): 1000 to 3500 nM
GI50 (T47D cells): 1500 to 3000 nM
GI50 [1]: 100 to 1000 nM
GI50 [2]: 1000 to 3500 nM
GI50 [3]: 500 to 1500 nM
pKd (CDK9): 6.30 to 7.30
GI50 [4]: 500 to 1500 nM

pKd: −log10 of the molar value.
